Earlier results as cited in patent US20210000933A1, “TUMOR VACCINE” (CELL-MEDICINE, INC., priority 2019, published 2021).

Test system: newly diagnosed glioblastoma

B1: interferon beta: interferon beta additionally used in the standard therapy in the JCOG0911 INTEGRA study (protein, UniProt P01574 22-187, looked up)
Interferon beta: MSYNLLGFLQRSSNFQCQKLLWQLNGRLEYCLKDRMNFDIPEEIKQLQQFQKEDAALTIYEMLQNIFAIFRQDSSSTGWNETIVENLLANVYHQINHLKTVLEEKLEKEDFTRGKLMSSLHLKRYYGRILHYLKAKEYSHCAWTIVRVEILRNFYFINRLTGYLRN
- mPFS (interferon beta administration group (control group 10.1 months)): 8.5 months
- mOS (interferon beta administration group (control group 20.3 months)): 24.0 months
